Data on 1 compound can be found in patent US5663186A, “Treatment of atherosclerosis with angiotensin II receptor blocking imidazoles” (Merck & Co., Inc., priority 1995, dated 1997).

For the test, the target named is Angiotensin II Receptor. Kind of test: Angiotensin II receptor binding, rat adrenal cortical microsomes (3H-AII displacement). Particulars: 2 nM 3H-AII, 1 hour room temperature.

Broadly, the IC50 is the concentration at which inhibition is half-maximal. Regarding `CCCCc1nc(Cl)c(C(=O)O)n1Cc1ccc(-c2ccccc2-c2nnn[nH]2)cc1` [Compound 2, 2-n-butyl-4-chloro-1-[(2'-(tetrazol-5-yl)-1,1'-biphenyl-4-yl)-methyl]-1H-imidazole-5-carboxylic acid], the IC50 is 11 nM.
